Experimental data from paper PMC9329268 (Angewandte Chemie (International ed. in English), 2022).

Sequences of proteins named here, by UniProt entry; tags and fusion partners are left off. A change or cut given only in a name is not applied to a line headed by its entry.
UniProt P0AC78: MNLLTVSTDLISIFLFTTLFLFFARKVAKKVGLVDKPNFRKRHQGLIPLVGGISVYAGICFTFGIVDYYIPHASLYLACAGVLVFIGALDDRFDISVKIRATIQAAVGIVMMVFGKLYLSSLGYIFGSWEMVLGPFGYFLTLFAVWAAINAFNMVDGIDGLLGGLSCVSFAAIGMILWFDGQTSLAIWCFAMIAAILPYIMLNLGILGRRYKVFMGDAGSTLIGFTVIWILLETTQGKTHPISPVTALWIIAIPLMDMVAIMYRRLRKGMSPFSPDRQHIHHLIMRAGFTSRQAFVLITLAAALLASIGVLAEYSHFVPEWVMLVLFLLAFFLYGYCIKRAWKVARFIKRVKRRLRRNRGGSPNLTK

Target: WecA (Escherichia coli, UniProt P0AC78)
Settings: read-out: IC50 WecA

Row | Compound | IC50 [nM]
1 | CC(=O)N[C@H]1[C@@H](O[C@@H]2O[C@H](C[C@@H](O)[C@H]3O[C@@H](n4ccc(=O)[nH]c4=O)[C@H](O)[C@@H]3O)[C@H](O)[C@H](O)[C@H]2NC(=O)/C=C/CCCCCCCCCC(C)C)O[C@H](CO)[C@@H](O)[C@@H]1O [TN-V (1, synthetic), tunicamycin V] | 150
2 | CC(=O)N[C@H]1[C@@H](O[C@@H]2O[C@H](C[C@@H](O)[C@H]3O[C@@H](n4ccc(=O)[nH]c4=O)[C@H](O)[C@@H]3O)[C@H](O)[C@H](O)[C@H]2NC(=O)/C=C/CCCCCCCCCC(C)C)O[C@H](CO)[C@@H](O)[C@@H]1O [TN-V (natural), tunicamycin V, reference compound] | 150
